Among the data in patent US20120330199A1 are 24-hour survival values, retold here.

The experiment has as its system porcine model of cardiac arrest. Description: SNPeCPR with stutter CPR (PC) or therapeutic hypothermia (TH) after 15 minutes of untreated VF. As to conditions: both groups (PC and TH). As for the experimental part: The ITD prevented respiratory gases from entering the lungs during the decompression phase of CPR. […] The abdomen in this example was compressed with 40-50 lbs of pressure, applied continuously with a bend human arm, using the forearm and a force gauge. Further, 2 mg of sodium nitroprusside (SNP) were given IV at minute 1 and 1 mg at minute 3 of CPR. All animals received in addition 0.5 mg of epinephrine at minute 5, 30 seconds before the first defibrillation attempt. Six animals (PC group), were treated with 40 seconds of SNPeCPR and the first dose of SNP were followed by 20-second pauses (cessation of perfusion) and 20 second of SNPeCPR for a total of 4 cycles for up to 3 minutes. After that animals had uninterrupted SNPeCPR until defibrillation at minute 5. The other 8 animals (TH group) had SNPeCPR for a total of 5 minutes without interruptions. The TH group received 12 hours of TH (core temp=33° C.). The PC group received no TH. Cerebral performance was scored at 24 hours by a veterinarian blinded to the treatment group.

Only a part of the results on these compounds is given; other tests are left out.

sodium nitroprusside registered a 24-hour survival of 100%.
